Measurements taken from patent publication US9095560B2, “Method of enhancing transdermal absorption using a composition comprising POE octyl dodecyl ether and squalane” (JAPAN SCIENCE AND TECHNOLOGY AGENCY, priority 2005, dated 2015).

Assay: Concentration of insulin in blood after application (Example 5)
Type: in vivo, Wistar rats
Settings: after the initial phase; FIG. 5
Experimental: Lyotropic liquid crystal compounded with 0.5%, 1% and 3% (by weight) of insulin (the lyotropic liquid crystal itself was a product prepared by the step 2 of Example 1) was prepared and concentration of insulin in blood was measured by the same manner as in Example 1. As a comparative example, 0.2 mg/200 μL of insulin was hypodermically injected and concentration of insulin in blood was measured. Incidentally, (A) to (D) in FIG. 5 are as follows.

## insulin
  concentration of insulin in blood thereafter: quickly decreased
